The assay concerns the target AR (Homo sapiens, UniProt P10275). Put plainly: VCAP AR Degradation Assay. Here is the method:
VCAP AR Degradation Assay. Test compounds were pre-dispensed into a Corning CellBind 96-well clear bottom plate (Cat #3300) using an acoustic dispenser to make a 10-point concentration series at 1:3 dilution for each compound. The final top concentration of each compound was 5 μM. DMSO at a final concentration of 0.1% was used as a control. VCaP cells cultured in DMEM with 8% fetal bovine serum (FBS) were seeded at 50K cells per well in a 200 μL volume into the compound plate and incubated at 37° C. in a CO2 incubator for 24 h. The medium was carefully removed from the cells and the plate was placed on ice. […] AR levels in compound-treated wells were normalized to that of DMSO control and expressed as percent of control (PoC) (y). […]
[formula] • A=YMin (lowest AR level normalized to DMSO control in response to compound treatment, as determined by curve fit) • B=YMax (maximum AR level as determined by curve fit) • C=EC50 • D=Hill Slope • x=compound concentration • EC50=the concentration of compound when y=(YMax−YMin)/2 • DC50=the concentration of the compound when y=50% of DMSO control (50% AR degradation) • y=AR protein level normalized to DMSO control
The lowest measured AR level normalized to DMSO control in response to compound treatment, termed Y value, was used to characterize the compound-mediated AR degradation efficiency.

Protein sequences, listed by entry. Tags and fused reporters are not part of them.
UniProt P10275, whole entry: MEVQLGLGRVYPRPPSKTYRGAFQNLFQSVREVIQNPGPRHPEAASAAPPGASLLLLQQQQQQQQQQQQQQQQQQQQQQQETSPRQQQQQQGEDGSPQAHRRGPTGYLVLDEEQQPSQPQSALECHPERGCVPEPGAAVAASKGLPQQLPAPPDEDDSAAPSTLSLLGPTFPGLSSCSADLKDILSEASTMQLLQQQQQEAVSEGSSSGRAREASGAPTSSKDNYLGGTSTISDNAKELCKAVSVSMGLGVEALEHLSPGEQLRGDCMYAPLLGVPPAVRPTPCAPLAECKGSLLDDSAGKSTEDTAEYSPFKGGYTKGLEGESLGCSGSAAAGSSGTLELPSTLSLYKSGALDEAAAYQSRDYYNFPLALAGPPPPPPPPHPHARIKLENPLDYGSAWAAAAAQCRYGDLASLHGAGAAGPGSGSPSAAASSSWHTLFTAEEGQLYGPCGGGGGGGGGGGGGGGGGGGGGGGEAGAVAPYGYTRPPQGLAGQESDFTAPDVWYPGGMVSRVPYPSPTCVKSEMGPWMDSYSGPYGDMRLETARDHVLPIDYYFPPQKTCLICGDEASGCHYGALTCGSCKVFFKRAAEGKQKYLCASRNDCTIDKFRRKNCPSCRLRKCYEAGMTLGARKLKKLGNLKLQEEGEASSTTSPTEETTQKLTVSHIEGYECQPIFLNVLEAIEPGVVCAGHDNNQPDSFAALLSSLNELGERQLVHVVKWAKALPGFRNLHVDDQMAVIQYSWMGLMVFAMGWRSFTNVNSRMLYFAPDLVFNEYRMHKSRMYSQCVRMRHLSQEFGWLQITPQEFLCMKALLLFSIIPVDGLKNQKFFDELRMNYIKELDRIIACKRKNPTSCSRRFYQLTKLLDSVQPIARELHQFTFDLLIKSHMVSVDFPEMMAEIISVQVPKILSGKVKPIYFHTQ

Take `C[C@@H]1CN(CCOc2ccc(N3C(=S)N(c4ccc(C#N)c(Cl)c4)C(=O)C3(C)C)cc2Cl)C[C@H](C)N1CC(=O)Nc1cccc(NC2CCC(=O)NC2=O)c1` (some centres unmarked): the “Y (AR degradation efficiency, % of DMSO control)” value (class symbols *, **) is “* (0<Y<=25%)”. Also, the DC50 (class symbols A-C) was less than 0.1 µM.

Source of the values: US12404241B2 (Celgene Corporation, priority 2018, dated 2025).
